The source of these data is US20140005281A1, “Method of Predicting Increased Risk of Suffering Statin-induced Adverse Drug Reactions” (priority 2012, published 2014).

The subject of data set [1] is αC418W, δS262T, αV249F and WT mice. The following applies: mouse, in vivo.

For the molecule `CC(C)c1c(C(=O)Nc2ccccc2)c(-c2ccccc2)c(-c2ccc(F)cc2)n1CC[C@@H](O)C[C@@H](O)CC(=O)O` [atorvastatin, Atorvastatin calcium], the “effect on CMAP decrement” value in data set [1] is reported as “no significant effect”. The voluntary locomotor activity result in the data set on αC418W and WT mice (WT mice, treated over 36 days) is on record as “remained unchanged”. Further, the “high velocity or long duration peak of voluntary locomotor activity” value in the data set on αC418W and WT mice (αC418W mice, over 36 days of treatment, particularly at 18 and 36 days) was “progressively decrease in frequency”.
